Reference: ChEMBL document CHEMBL1127788, “Iodinated 2-aminotetralins and 3-amino-1-benzopyrans: ligands for dopamine D2 and D3 receptors” (J Med Chem, 1994)

Protein sequences, listed by entry. Tags and fused reporters are not part of them.
UniProt P35462, whole entry: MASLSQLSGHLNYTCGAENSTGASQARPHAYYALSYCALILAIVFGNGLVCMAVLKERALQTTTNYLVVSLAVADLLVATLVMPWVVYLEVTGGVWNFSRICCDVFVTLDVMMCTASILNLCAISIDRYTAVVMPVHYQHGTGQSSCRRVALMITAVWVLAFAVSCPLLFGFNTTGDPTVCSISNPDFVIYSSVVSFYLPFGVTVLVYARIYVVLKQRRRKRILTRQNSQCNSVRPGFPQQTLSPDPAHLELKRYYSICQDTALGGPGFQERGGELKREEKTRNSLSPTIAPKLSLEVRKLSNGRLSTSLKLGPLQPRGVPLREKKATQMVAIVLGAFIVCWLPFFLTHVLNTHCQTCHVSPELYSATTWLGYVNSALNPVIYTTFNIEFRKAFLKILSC

Target: D(3) dopamine receptor (Homo sapiens, UniProt P35462)
Test: Tested for the inhibitory activity against Dopamine D3 receptor in infected Sf9 cells
Type: cell-based
Method in brief: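 Membranes from Sf9 cells infected with AcMNPVrD3, in 50 mM Tris pH 7.4 with 120 mM NaCl, protease inhibitors and BSA 1 mg/mL. Displacement of 0.1 nM [125I]-NCQ298 by drug up to 10^-5 M, 30 min at 37 °C. Nonspecific binding: 10 μM (+)butaclamol or 1 μM 7-OH-DPAT. Filtration onto PEI-soaked glass fiber, γ counting, LIGAND nonlinear fit.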

CCCN(C/C=C/I)C1CCc2ccc(O)cc2C1 (stereo unspecified)
Ki: 1.85 nM
